What was measured:
D-amino-acid oxidase [1] = molecular target: T1, D-amino-acid oxidase (Homo sapiens, UniProt P14920); experiment: Inhibition of full length human DAO transfected in CHO-K1 cells incubated for 30 mins by Amplex red and horseradish peroxidase based fluorescence assay; format: cell-based
D-amino-acid oxidase [2] = molecular target: T1, D-amino-acid oxidase; experiment: Inhibition of recombinant full length human DAO preincubated with compound for 20 mins measured after 4 hrs by Amplex red and horseradish peroxidase based fluorescence assay

Chains of the proteins cited; added tags and fusions are not shown. Lines headed by an entry give the natural chain unless they say otherwise; changes in a name come on top.
UniProt P14920: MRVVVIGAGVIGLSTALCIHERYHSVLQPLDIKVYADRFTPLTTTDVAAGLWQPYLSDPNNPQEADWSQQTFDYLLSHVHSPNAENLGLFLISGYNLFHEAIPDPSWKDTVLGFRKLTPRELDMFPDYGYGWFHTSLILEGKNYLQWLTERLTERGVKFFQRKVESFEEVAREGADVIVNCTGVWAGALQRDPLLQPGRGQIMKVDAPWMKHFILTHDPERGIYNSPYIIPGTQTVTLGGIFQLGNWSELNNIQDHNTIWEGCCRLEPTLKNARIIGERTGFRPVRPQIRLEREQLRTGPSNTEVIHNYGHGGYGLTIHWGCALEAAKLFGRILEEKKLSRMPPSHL

| EC50 (D-amino-acid oxidase [1]) [nM] | IC50 (D-amino-acid oxidase [2]) [nM] | Structure (SMILES) |
| --- | --- | --- |
| 29 | 17 | O=c1[nH]nc(Cc2ccc(Cl)cc2)cc1O |
| 380 | 97 | O=c1[nH]cc(SCc2ccc(S(F)(F)(F)(F)F)cc2)[nH]c1=O |
| 600 | 92 | O=c1[nH]cc(CSc2ccc(C(F)(F)F)cc2)[nH]c1=O |
| 830 | 82 | CS(=O)(=O)c1ccc(SCc2c[nH]c(=O)c(=O)[nH]2)cc1 |
| 200 | 54 | N#Cc1ccc(CSc2c[nH]c(=O)c(=O)[nH]2)cc1F |

| Structure (SMILES) | EC50 (D-amino-acid oxidase [1]) [nM] | IC50 (D-amino-acid oxidase [2]) [nM] |
| --- | --- | --- |
| O=c1[nH]cc(SCc2ccc(C(F)(F)F)cc2)[nH]c1=O | 420 | 91 |
| O=c1[nH]cc([C@@H]2COc3cc(COCc4cccc(F)c4)ccc3S2)[nH]c1=O | – | 8 |
| C[C@@]1(c2c[nH]c(=O)c(=O)[nH]2)COc2cc(Cl)ccc2S1 | 95 | 9 |
| N#Cc1ccc(SCc2c[nH]c(=O)c(=O)[nH]2)cc1Cl | 880 | 98 |

Source: ChEMBL document CHEMBL5154896, “Discovery of a Novel Class of d-Amino Acid Oxidase Inhibitors Using the Schrödinger Computational Platform” (J Med Chem, 2022)
